Experimental data: US6355473B1, “Yeast cells having mutations in stp22 and uses therefor” (Cadus Pharmaceutical Corp., priority 1998, dated 2002)

The chains behind the UniProt entries cited, without tags or fusion partners. Where a name states a change or a piece, a line headed by the entry shows the natural chain unless it says otherwise.
UniProt P32745: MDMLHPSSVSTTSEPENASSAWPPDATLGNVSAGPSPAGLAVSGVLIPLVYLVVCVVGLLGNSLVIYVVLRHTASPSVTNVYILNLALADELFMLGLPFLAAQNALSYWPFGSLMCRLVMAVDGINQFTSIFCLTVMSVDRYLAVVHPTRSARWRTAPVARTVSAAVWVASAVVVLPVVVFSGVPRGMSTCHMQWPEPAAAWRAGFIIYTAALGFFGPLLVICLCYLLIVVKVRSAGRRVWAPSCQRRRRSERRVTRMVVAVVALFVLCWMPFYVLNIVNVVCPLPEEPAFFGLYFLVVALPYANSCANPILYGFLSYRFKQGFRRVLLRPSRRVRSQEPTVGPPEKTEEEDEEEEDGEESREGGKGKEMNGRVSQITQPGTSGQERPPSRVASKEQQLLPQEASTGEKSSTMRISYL

Molecular target: T1, human somatostatin receptor 3 (hSSTR3) (Homo sapiens, UniProt P32745)
T1 construct: expressed in transfected cells; host or cells: Saccharomyces cerevisiae CY9438 (wild type) and CY12201 (stp22), co-expressing Gpa1A345T with five C-terminal residues of human Gαi2
Assay: FUS1-lacZ β-galactosidase induction assay in yeast expressing αF-hSSTR3
Type: cell-based
Conditions: stp22 vs wild type

Somatostatin-14
decrease of EC50 value, stp22 versus wild type: 50% | increase in the levels of FUS1-lacZ induction, stp22 versus wild type: two-fold
